In patent US12528818B2, “Compositions and methods for inhibition of RAS” (Leidos Biomedical Research, Inc., priority 2021, dated 2026):
pIC50: −log10 of the molar value.

Columns and labels:
[1] = target: Avi-KRAS G12C (1-169) GppNHp/RAF1 RBD-3xFLAG (52-151) (Homo sapiens, UniProt P01116, G12C); experiment: biochemical; details: Raf1-GppNHp-KRAS G12C disruption, Raf1 RBD-KRAS G12C-GppNHp disruption assay IC50
[2] = target: GDP-loaded KRAS4b (amino acids 1-169) G12C/C118S protein (Homo sapiens, UniProt P01116, C118S/G12C); experiment: Covalent cysteine 12 modification by MALDI-TOF MS, GDP-loaded KRAS G12C; assay type: biochemical; details: 15 minutes reaction time
[3] = target: GppNHp-loaded KRAS4b (amino acids 1-169) G12C/C118S protein (Homo sapiens, UniProt P01116, C118S/G12C); experiment: Covalent cysteine 12 modification by MALDI-TOF MS, GppNHp-loaded KRAS G12C; assay type: biochemical; details: 15 minutes reaction time
[4] = compounds 94 or before using 5 μM proteins
[5] = compound 95 or later using 1 μM proteins

SMILES | pIC50 [1] | GDP-KRAS G12C percent of modification [2, 4] | GppNHp-KRAS G12C percent of modification [3, 4] | also measured
C=CC(=O)N1CC[C@@H](N(C)c2nc(OC[C@@H]3CCCN3C)nc3c(F)c(-c4ccc(F)c5sc(N)c(C#N)c45)c(Cl)cc23)[C@H]1COC (atropisomer, axis not shown) [Compound 416] | > 6.30 | – | – | –
C=CC(=O)N1CC[C@@H](N(C)c2nc(OC[C@@H]3CCCN3C)nc3c(F)c(-c4ccc(F)c5sc(N)c(C#N)c45)c(Cl)cc23)[C@H]1C (atropisomer, axis not shown) [Compound 419] | > 6.30 | – | – | –
C=CC(=O)N1CC[C@@H](N(C)c2nc(OC[C@@H]3CC4(CC4)CN3C)nc3c(F)c(-c4ccc(F)c5sc(N)c(C#N)c45)c(Cl)cc23)[C@H]1C (atropisomer, axis not shown) [Compound 448] | 5.30 to 6.30 | – | – | –
C=CC(=O)N1CC[C@@H](N(C)c2nc(OC[C@@H]3CCCN3CC)nc3c(F)c(-c4ccc(F)c5sc(N)c(C#N)c45)c(C(F)(F)F)cc23)[C@H]1C (atropisomer, axis not shown) [Compound 451] | > 6.30 | – | – | –
C=CC(=O)N1CC[C@@H](N(C)c2nc(OC[C@@H]3CCCN3CC)nc3c(F)c(-c4ccc(F)c5sc(N)c(C#N)c45)c(Cl)cc23)[C@H]1C (atropisomer, axis not shown) [Compound 464] | 5.30 to 6.30 | – | – | –
C=CC(=O)NCCNc1ncnc2c(F)c(-c3ccc(F)c4sc(N)nc34)c(Cl)cc12 [Compound 1] | – | A (percent of modification ≥70%) | D (percent of modification <10%) | –
Nc1nc2c(-c3c(Cl)cc4c(NCCNC(=O)CCl)ncnc4c3F)ccc(F)c2s1 [Compound 2] | – | A (percent of modification ≥70%) | C (10%≤percent of modification <50%) | –
C=CS(=O)(=O)NCCNc1ncnc2c(F)c(-c3ccc(F)c4sc(N)nc34)c(Cl)cc12 [Compound 3] | – | A (percent of modification ≥70%) | D (percent of modification <10%) | –
Nc1nc2c(-c3c(Cl)cc4c(NCCNC(=O)CCl)ncnc4c3O)ccc(F)c2s1 [Compound 9] | – | C (10%≤percent of modification <50%) | D (percent of modification <10%) | –
C=CC(=O)N1CCN(c2ncnc3c(O)c(-c4ccc(F)c5sc(N)nc45)c(Cl)cc23)CC1 [Compound 10] | – | A (percent of modification ≥70%) | D (percent of modification <10%) | –
C=CS(=O)(=O)N1CCN(c2ncnc3c(F)c(-c4ccc(F)c5sc(N)nc45)c(Cl)cc23)CC1 [Compound 11] | – | A (percent of modification ≥70%) | D (percent of modification <10%) | –
C=CC(=O)N1CCN(c2ncnc3c(F)c(-c4ccc(F)c5sc(N)nc45)c(Cl)cc23)C[C@@H]1CC#N [Compound 12] | – | A (percent of modification ≥70%) | C (10%≤percent of modification <50%) | –
N#CC[C@H]1CN(c2ncnc3c(F)c(-c4ccc(F)c5sc(N)nc45)c(Cl)cc23)CCN1C(=O)CCl [Compound 13] | – | A (percent of modification ≥70%) | B (50≤percent of modification <70%) | –
C=CC(=O)NCCNc1ncnc2c(O)c(-c3ccc(F)c4sc(N)nc34)c(Cl)cc12 [Compound 14] | – | C (10%≤percent of modification <50%) | D (percent of modification <10%) | –
C=C(F)C(=O)NCCNc1ncnc2c(O)c(-c3ccc(F)c4sc(N)nc34)c(Cl)cc12 [Compound 15] | – | D (percent of modification <10%) | D (percent of modification <10%) | –
C=CS(=O)(=O)N1CCN(c2ncnc3c(F)c(-c4ccc(F)c5sc(N)nc45)c(Cl)cc23)C[C@@H]1CC#N [Compound 17] | – | C (10%≤percent of modification <50%) | D (percent of modification <10%) | –
CC#CC(=O)N1CC(Nc2ncnc3c(F)c(-c4ccc(F)c5sc(N)nc45)c(Cl)cc23)C1 [Compound 18] | – | A (percent of modification ≥70%) | D (percent of modification <10%) | –
C=C(F)C(=O)N1CC(Nc2ncnc3c(F)c(-c4ccc(F)c5sc(N)nc45)c(Cl)cc23)C1 [Compound 19, 1-[3-[[7-(2-amino-7-fluoro-1,3-benzothiazol-4-yl)-6-chloro-8-fluoro-quinazolin-4-yl]amino]azetidin-1-yl]-2-fluoro-prop-2-en-1-one] | – | C (10%≤percent of modification <50%) | D (percent of modification <10%) | –
C=CC(=O)N1CCN(c2ncnc3c(F)c(-c4ccc(F)c5sc(N)nc45)c(C4(C#N)CC4)cc23)CC1 [Compound 96] | – | – | – | GDP-KRAS G12C percent of modification [2, 5]: A (percent of modification ≥70%); GppNHp-KRAS G12C percent of modification [3, 5]: D (percent of modification <10%)
CC#CC(=O)N1CC[C@@H]2[C@H]1CN2c1nc(OCC23CCCN2CCC3)nc2c(F)c(-c3ccc(F)c4sc(N)nc34)c(Cl)cc12 [Compound 118] | – | – | – | GDP-KRAS G12C percent of modification [2, 5]: C (10%≤percent of modification <50%); GppNHp-KRAS G12C percent of modification [3, 5]: D (percent of modification <10%)

SMILES | pIC50 [1] | GDP-KRAS G12C percent of modification [2, 4] | GppNHp-KRAS G12C percent of modification [3, 4] | also measured
CC#CC(=O)N1CC[C@@H]2[C@H]1CN2c1nc(OCC23CCCN2CCC3)nc2c(F)c(-c3ccc(F)c4sc(N)nc34)c(-c3ccoc3)cc12 [Compound 120] | – | – | – | GDP-KRAS G12C percent of modification [2, 5]: B (50≤percent of modification <70%); GppNHp-KRAS G12C percent of modification [3, 5]: D (percent of modification <10%)
C=CC(=O)N1CCN(c2ncnc3c(F)c(-c4ccc(F)c5sc(N)nc45)c(C4CCC4)cc23)CC1 [Compound 122] | – | – | – | GDP-KRAS G12C percent of modification [2, 5]: C (10%≤percent of modification <50%); GppNHp-KRAS G12C percent of modification [3, 5]: D (percent of modification <10%)
C=CC(=O)N1CC(N(c2nc(OCC3CCCN3C)nc3c(F)c(-c4ccc(F)c5sc(N)nc45)c(Cl)cc23)C(C)C)C1 (stereo not drawn) [Compound 159] | – | – | – | GDP-KRAS G12C percent of modification [2, 5]: C (10%≤percent of modification <50%); GppNHp-KRAS G12C percent of modification [3, 5]: C (10%≤percent of modification <50%)
C=CC(=O)N1CC(N(c2nc(OC[C@@H]3CCCN3C)nc3c(F)c(-c4ccc(F)c5sc(N)nc45)c(Cl)cc23)C(C)C)C1 [Compound 159] | 5.30 to 6.30 | – | – | –
C=CC(=O)N1CC(Nc2nc(OC[C@H]3CCCN3CCC#N)nc3c(F)c(-c4ccc(F)c5sc(N)nc45)c(Cl)cc23)C1 [Compound 160] | 4.70 to 5.30 | – | – | –
C=CC(=O)N1CCN(c2nc(OC[C@@H]3CCCN3C)nc3c(F)c(-c4ccc(F)c5sc(N)nc45)c(OC(F)(F)F)cc23)CC1 [Compound 163] | – | – | – | GDP-KRAS G12C percent of modification [2, 5]: A (percent of modification ≥70%); GppNHp-KRAS G12C percent of modification [3, 5]: D (percent of modification <10%)
C=CC(=O)N1CC(N(C)c2nc(OC[C@@H]3CCCN3C)nc3c(OC4CC4)c(-c4ccc(F)c5sc(N)nc45)c(Cl)cc23)C1 [Compound 184] | 4.70 to 5.30 | – | – | –
C=CC(=O)N1CCN(c2nc(OCC34CCCN3C[C@H](OC)C4)nc3c(F)c(-c4ccc(F)c5sc(N)nc45)c(C(F)(F)F)cc23)CC1 (stereo partly drawn) [Compound 209] | – | – | – | GDP-KRAS G12C percent of modification [2, 5]: A (percent of modification ≥70%); GppNHp-KRAS G12C percent of modification [3, 5]: C (10%≤percent of modification <50%)
C=CC(=O)N1CCN(c2nc(OC[C@@]34CCCN3C[C@H](OC)C4)nc3c(F)c(-c4ccc(F)c5sc(N)nc45)c(C(F)(F)F)cc23)CC1 [Compound 209] | 5.30 to 6.30 | – | – | –
C=CC(=O)N1CC(Nc2nc(OCC34CCCN3CCC4)nc3c(F)c(-c4ccc(F)c5sc(N)nc45)c(Cl)cc23)[C@H]1C (stereo partly drawn) [Compound 213] | – | – | – | GDP-KRAS G12C percent of modification [2, 5]: C (10%≤percent of modification <50%); GppNHp-KRAS G12C percent of modification [3, 5]: C (10%≤percent of modification <50%)
C=CC(=O)N1C[C@H](C)N(c2nc(OC[C@@]34CCCN3C[C@H](F)C4)nc3c(F)c(-c4ccc(F)c5sc(N)nc45)c(OC(F)F)cc23)C[C@H]1C [Compound 280] | – | – | – | GDP-KRAS G12C percent of modification [2, 5]: A (percent of modification ≥70%); GppNHp-KRAS G12C percent of modification [3, 5]: C (10%≤percent of modification <50%)
C=CC(=O)N1CCC(N(C)c2nc(OC[C@@H]3CC4(CC4)CN3C)nc3c(F)c(-c4ccc(F)c5sc(N)c(C#N)c45)c(C(F)(F)F)cc23)[C@H]1C (stereo partly drawn) [Compound 409] | > 6.30 | – | – | –
C=CC(=O)N1CC[C@@H](N(C)c2nc(OC[C@@H]3CCCN3C)nc3cc(-c4ccc(F)c5sc(N)c(C#N)c45)c(F)cc23)[C@H]1C [Compound 417] | > 6.30 | – | – | –
C=CC(=O)N1CC[C@@H](N(C)c2nc(OC[C@@H]3CCCN3C)nc3c(F)c(-c4ccc(F)c5sc(N)c(C#N)c45)ccc23)[C@H]1C [Compound 420] | > 6.30 | – | – | –
C=CC(=O)N1CC[C@@H](N(C)c2nc(OC[C@@H]3CC4(CC4)CN3C)nc3c(F)c(-c4ccc(F)c5sc(N)c(C#N)c45)ccc23)[C@H]1COC [Compound 433] | > 6.30 | – | – | –
C=CC(=O)N1CC[C@@H](N(C)c2nc(OC[C@@H]3CCCN3C)nc3cc(-c4ccc(F)c5sc(N)c(C#N)c45)c(F)cc23)[C@H]1COC [Compound 441] | > 6.30 | – | – | –
C=CC(=O)N1CCC(N(C)c2nc(OC[C@@H]3CCCN3CC)nc3c(F)c(-c4ccc(F)c5sc(N)c(C#N)c45)c(C(F)(F)F)cc23)[C@H]1C (stereo partly drawn) [Compound 451] | – | – | – | GDP-KRAS G12C percent of modification [2, 5]: A (percent of modification ≥70%); GppNHp-KRAS G12C percent of modification [3, 5]: B (50≤percent of modification <70%)
C=CC(=O)N1CC[C@@H](N(C)c2nc(OC)nc3c(F)c(-c4ccc(F)c5sc(N)c(C#N)c45)ccc23)[C@H]1C [Compound 461] | 5.30 to 6.30 | – | – | –
C=CC(=O)N1CC[C@@H](N(C)c2ncnc3c(F)c(-c4ccc(F)c5sc(N)c(C#N)c45)ccc23)[C@H]1C [Compound 462] | 5.30 to 6.30 | – | – | –
C=CC(=O)N1CC[C@@H](N(C)c2nc(OCCOC)nc3c(F)c(-c4ccc(F)c5sc(N)c(C#N)c45)ccc23)[C@H]1C [Compound 466] | 5.30 to 6.30 | – | – | –
